Test results reported in PubChem BioAssay AID624169 (The Scripps Research Institute Molecular Screening Center, 2012).
Only a part is listed here, and it is no random draw. Activity calls are given as the source filed them.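 The calls were made as follows: active = activation above a run cutoff, the mean activation of all tested compounds plus 3 SD (cut at about 14% in these data); inactive = the rest.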

Chains of the proteins cited; added tags and fusions are not shown.
UniProt P35363, whole entry: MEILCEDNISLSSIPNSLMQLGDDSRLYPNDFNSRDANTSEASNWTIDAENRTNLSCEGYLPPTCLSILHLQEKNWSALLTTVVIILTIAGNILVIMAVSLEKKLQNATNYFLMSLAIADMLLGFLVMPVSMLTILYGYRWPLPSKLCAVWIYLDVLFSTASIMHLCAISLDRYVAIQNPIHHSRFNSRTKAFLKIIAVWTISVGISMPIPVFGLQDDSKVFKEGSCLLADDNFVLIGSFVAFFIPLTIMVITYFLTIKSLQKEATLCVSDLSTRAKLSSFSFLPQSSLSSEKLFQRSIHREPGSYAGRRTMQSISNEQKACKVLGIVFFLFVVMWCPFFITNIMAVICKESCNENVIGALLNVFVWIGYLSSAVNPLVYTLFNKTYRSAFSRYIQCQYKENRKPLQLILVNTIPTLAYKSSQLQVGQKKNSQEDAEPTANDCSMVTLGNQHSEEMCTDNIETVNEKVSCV

target: 5-hydroxytryptamine receptor 2A (Mus musculus) (UniProt P35363); assay: activation of mouse 5-HT2A receptor – cell-based, luminescence, primary screen (AID 624169); details: CHO-K1 mHTR2A beta-arrestin complementation, at 7.6 µM, active compounds read high, percent of 30 µM serotonin response;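 also: 0% = plate median of compound wells and 100% = 30 µM serotonin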

SMILES | activation
Cc1cccc(NC2(C#N)CCN(Cc3ccccc3)CC2)c1 | inactive: -1.62%
COc1cccc(C(=O)N(c2cc(C)cc(C)c2)C2CCN(C(=O)OC(C)(C)C)CC2)c1 | inactive: 4.54%
COc1cccc(C(c2nnnn2C2CCCC2)N2CCC(n3c(=O)[nH]c4ccccc43)CC2)c1OC (stereo not drawn) | inactive: 4.63%
COc1cc(OC)cc(C(=O)NCC2(N3CCOCC3)CCCCC2)c1 | inactive: -5.26%
CCC(CO)(C(=O)OC1CN2CCC1CC2)c1ccccc1 (stereo not drawn) | inactive: 3.66%
CN1CCC(Nc2ccc(Cl)cc2)CC1 | inactive: -1.92%
CCOc1ncccc1C(=O)NCC1(N2CCOCC2)CCCCC1 | inactive: 1.71%
CN1CCC(Nc2ccc(F)c(Cl)c2)CC1 | inactive: -3.71%
CC(C)(C)OC(=O)N1CCC(Nc2ccccc2)CC1 | inactive: 4.35%
NN(c1ccccc1)C1CCN(CCc2ccccc2)CC1 | inactive: -10.9%
O=C(O)C1(Nc2ccccc2)CCN(Cc2ccccc2)CC1 | inactive: -7.36%
CCCOc1ccc(C(=O)NCC2(N(C)C)CCCCC2)cc1 | inactive: -9.46%
O=c1[nH]c2ccccc2n1C1CCN(C(c2cc3ccccc3o2)c2nnnn2C2CCCC2)CC1 (stereo not drawn) | inactive: 5.07%
Cc1ccccc1NC1(C#N)CCN(Cc2ccccc2)CC1 | inactive: 2.43%
CC(C)(C)n1nnnc1C(c1ccnc2ccccc12)N1CCC(n2c(=O)[nH]c3ccccc32)CC1 (stereo not drawn) | inactive: 1.41%
COc1ccc(C(c2nnnn2C2CCCCC2)N2CCC(n3c(=O)[nH]c4ccccc43)CC2)cc1 (stereo not drawn) | inactive: -1.7%
CCN1CCC(Nc2cccc(F)c2)CC1 | inactive: -2.73%
O=C(NCC1(N2CCCCC2)CCCCC1)c1ccco1 | inactive: -3.91%
Cn1c(=O)[nH]cc(N(CCCl)CCCl)c1=O | inactive: 8.27%
CN(C)c1ccc(C(=O)NCC2(N3CCCCC3)CCCCC2)cc1 | inactive: -1.9%
CC(=O)N(c1ccccc1)C1CCNCC1 | inactive: 3.3%
COc1cccc(C(c2nnnn2C2CCCCC2)N2CCC(n3c(=O)[nH]c4ccccc43)CC2)c1OC (stereo not drawn) | inactive: -1.92%
CCC(c1nnnn1C1CCCCC1)N1CCC(n2c(=O)[nH]c3ccccc32)CC1 (stereo not drawn) | inactive: -1.82%
O=c1[nH]c2ccccc2n1C1CCN(C(c2ccnc3ccccc23)c2nnnn2C2CCCCC2)CC1 (stereo not drawn) | inactive: -5.24%

SMILES | activation
COc1cc(OC)cc(C(=O)NCC2(N3CCCCC3)CCCCC2)c1 | inactive: -18.3%
Cc1ccc(C(=O)NCC2(N3CCCCC3)CCCCC2)o1 | inactive: 0.65%
Fc1ccccc1NC1CCN(Cc2ccccc2)CC1 | inactive: -3.42%
Cc1ccc(NC2(C#N)CCN(Cc3ccccc3)CC2)cc1 | inactive: 4.62%
CN(C)C1(CNC(=O)c2cccc(C#N)c2)CCCCC1 | inactive: -0.81%
c1ccc(CN2CCC(Nc3ccccc3)CC2)cc1 | inactive: -0.88%
CCCN1CCC(Nc2cc(OC)cc(OC)c2)CC1 | inactive: -3.93%
O=c1[nH]c2ccccc2n1C1CCN(C(c2ccccc2)c2nnnn2C2CCCC2)CC1 (stereo not drawn) | inactive: -1.62%
Cc1cc(N(CCCl)CCCl)ccc1C=O | inactive: -3.18%
CC(C)(C)n1nnnc1C(c1cccc2ccccc12)N1CCC(n2c(=O)[nH]c3ccccc32)CC1 (stereo not drawn) | inactive: 8.58%
N#Cc1ccc(C(=O)NCC2(N3CCCCC3)CCCCC2)cc1 | inactive: -7.17%
CC(C)(C)OC(=O)N1CCC(N(C(=O)c2ccccc2)c2ccc(Cl)cc2)CC1 | inactive: -14.3%
COc1cccc(C(c2nnnn2C(C)(C)C)N2CCC(n3c(=O)[nH]c4ccccc43)CC2)c1OC (stereo not drawn) | inactive: -2.7%
CCOC(=O)N1CCC(Nc2ccc(C)cc2)CC1 | inactive: 9.93%
N/C(=N\O)c1c(N)no[n+]1[O-] | inactive: -3.61%
O=C(OC1CN2CCC1CC2)C1c2ccccc2C=Cc2ccccc21 (stereo not drawn) | inactive: 0.54%
O=c1[nH]c2ccccc2n1C1CCN(C(c2cccs2)c2nnnn2C2CCCC2)CC1 (stereo not drawn) | inactive: 4.18%
CCCCn1nnnc1C(c1cccc(OC)c1OC)N1CCC(n2c(=O)[nH]c3ccccc32)CC1 (stereo not drawn) | inactive: 3.35%
CCCCn1nnnc1C(c1ccccc1)N1CCC(n2c(=O)[nH]c3ccccc32)CC1 (stereo not drawn) | inactive: 3.44%
COc1cc(C(=O)NCC2(N3CCOCC3)CCCCC2)cc(OC)c1C | inactive: -6.24%
O=C(NCC1(N2CCOCC2)CCCCC1)c1cc(Br)ccc1Cl | inactive: -7.81%
O=c1[nH]c2ccccc2n1C1CCN(C(c2cccs2)c2nnnn2C2CCCCC2)CC1 (stereo not drawn) | inactive: 2.03%
COc1ccc(C(=O)NCC2(N3CCOCC3)CCCCC2)cc1OC | inactive: 0.58%
O=c1[nH]c2ccccc2n1C1CCN(C(c2ccnc3ccccc23)c2nnnn2C2CCCC2)CC1 (stereo not drawn) | inactive: 3.5%
